# Legend:
# The chains behind the UniProt entries cited, without tags or fusion partners. Where a name states a change or a piece, a line headed by the entry shows the natural chain unless it says otherwise.
# UniProt P41145: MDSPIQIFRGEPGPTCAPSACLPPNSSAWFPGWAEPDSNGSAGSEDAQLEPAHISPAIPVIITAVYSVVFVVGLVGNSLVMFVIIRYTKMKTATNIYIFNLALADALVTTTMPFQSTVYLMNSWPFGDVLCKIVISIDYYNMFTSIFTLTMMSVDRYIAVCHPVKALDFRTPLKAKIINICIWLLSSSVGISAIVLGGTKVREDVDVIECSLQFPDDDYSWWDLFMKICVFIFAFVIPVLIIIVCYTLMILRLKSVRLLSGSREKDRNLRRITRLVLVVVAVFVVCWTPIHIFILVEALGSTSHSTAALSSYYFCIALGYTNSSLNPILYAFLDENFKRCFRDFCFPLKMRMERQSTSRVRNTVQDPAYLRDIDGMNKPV
# UniProt P35372, whole entry: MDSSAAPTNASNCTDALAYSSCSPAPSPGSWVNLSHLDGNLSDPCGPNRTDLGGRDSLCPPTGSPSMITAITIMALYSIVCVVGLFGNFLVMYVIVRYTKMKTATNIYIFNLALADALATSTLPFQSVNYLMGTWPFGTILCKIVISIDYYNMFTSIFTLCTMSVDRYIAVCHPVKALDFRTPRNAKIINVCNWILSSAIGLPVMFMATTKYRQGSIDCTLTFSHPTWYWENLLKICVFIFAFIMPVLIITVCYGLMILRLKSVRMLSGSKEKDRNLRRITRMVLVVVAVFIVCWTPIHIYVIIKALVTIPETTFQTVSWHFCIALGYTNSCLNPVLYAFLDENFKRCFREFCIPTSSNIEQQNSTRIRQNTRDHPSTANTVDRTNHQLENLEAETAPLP
# [1] = molecular target: T1, human κ opioid receptor (Homo sapiens, UniProt P41145); conditions: mean ± SEM; cited from earlier work
# [2] = molecular target: T2, human μ opioid receptor (Homo sapiens, UniProt P35372); experiment: biochemical
# [3] = molecular target: T3, human δ opioid receptor (Homo sapiens, UniProt P41143); experiment: biochemical
# [4] = molecular target: T1, human κ opioid receptor; experiment: biochemical; conditions: for Kb: Ke κ, U69,593; for δ/κ: ratio of Ke values
# [5] = molecular target: T2, human μ opioid receptor; conditions: mean ± SEM; cited from earlier work
# [6] = molecular target: T3, human δ opioid receptor; conditions: mean ± SEM; cited from earlier work
smiles,measurement,setting,value
CC1CCN(C[C@@H](NC(=O)[C@H]2Cc3ccc(O)cc3CN2)C(C)C)CC1 [4-MePDTic (43)],"Ke κ, U69,593",[1],0.37 ± 0.09 nM
"CC(C)[C@H](CC1CCCCC1)NC(=O)[C@@H]1Cc2ccc(O)cc2CN1 [Compound 5, (3S)-N-[(1S)-1-(Cyclohexylmethyl)-2-methylpropyl]-7-hydroxy-1,2,3,4-tetrahydroisoquinoline-3-carboxamide]",Kb,[2],> 3000 nM
"O=C(NCCC1CCCCC1)[C@H]1Cc2ccc(O)cc2CN1 [Compound 6, (3R)-N-(2-Cyclohexylethyl)-7-hydroxy-1,2,3,4-tetrahydroisoquinoline-3-carboxamide]",Kb,[3],> 3000 nM
"O=C(N[C@H](CC1CCCCC1)c1ccccc1)[C@H]1Cc2ccc(O)cc2CN1 [Compound 7, (3R)-N-[(1R)-2-Cyclohexyl-1-phenylethyl]-7-hydroxy-1,2,3,4-tetrahydroisoquinoline-3-carboxamide]",Kb,[3],> 3000 nM
"O=C(N[C@H](CC1CCCCC1)C1CC1)[C@H]1Cc2ccc(O)cc2CN1 [Compound 8, (3R)-N-[(1R)-2-Cyclohexyl-1-cyclopropylethyl]-7-hydroxy-1,2,3,4-tetrahydroisoquinoline-3-carboxamide]",Kb,[3],> 3000 nM
"CC(C)[C@@H](CC1CCCCC1)NC(=O)[C@H]1Cc2ccc(C(N)=O)cc2CN1 [Compound 9, (3R)-N^3-[(1R)-1-(Cyclohexylmethyl)-2-methylpropyl]-1,2,3,4-tetrahydroisoquinoline-3,7-dicarboxamide]",Kb,[4],0.058 to 0.64 nM
"CC(C)[C@@H](CC1CCCC1)NC(=O)[C@H]1Cc2ccc(O)cc2CN1 [Compound 13, (3R)-N-[(1R)-1-(Cyclopentylmethyl)-2-methylpropyl]-7-hydroxy-1,2,3,4-tetrahydroisoquinoline-3-carboxamide]",Kb,[4],0.058 to 0.64 nM
"CC(C)[C@@H](CC1CCCCCC1)NC(=O)[C@H]1Cc2ccc(O)cc2CN1 [Compound 14, (3R)-N-[(1R)-1-(Cycloheptylmethyl)-2-methylpropyl]-7-hydroxy-1,2,3,4-tetrahydroisoquinoline-3-carboxamide]",Kb,[4],0.058 to 0.64 nM
"CC1CCC(C[C@@H](NC(=O)[C@H]2Cc3ccc(O)cc3CN2)C(C)C)CC1 (stereo partly drawn) [Compound 18, (3R)-7-Hydroxy-N-{(1R)-2-methyl-1-[(4-methylcyclohexyl)-methyl]propyl}–1,2,3,4-tetrahydroisoquinoline-3-carboxamide]",Kb,[3],> 3000 nM
"CC(C)[C@@H](CC1CCCCC1)NC(=O)[C@H]1Cc2ccc(O)cc2CN1C [Compound 19, (3R)-N-[(1R)-1-(Cyclohexylmethyl)-2-methylpropyl]-7-hydroxy-2-methyl-1,2,3,4-tetrahydroisoquinoline-3-carboxamide]",fold less potent κ opioid receptor antagonist than 1,[4],30 fold
same,δ/κ,[4],>709
"CC(C)[C@@H](CC1CCCC1)NC(=O)[C@@]1(C)Cc2ccc(O)cc2CN1 [Compound 20, (3R)-N-[(1R)-1-(Cyclopentylmethyl)-2-methylpropyl]-7-hydroxy-3-methyl-1,2,3,4-tetrahydroisoquinoline-3-carboxamide]",δ/κ,[4],>484
same,fold less potent at the κ opioid receptor than parent compound 13,[4]; relative to 13,107 fold
"CC(C)[C@@H](CN1CC[C@@](C)(c2cccc(O)c2)[C@@H](C)C1)NC(=O)[C@H]1Cc2ccc(O)cc2CN1 [JDTic, (3R)-1,2,3,4-tetrahydro-7-hydroxy-N-[(1S)-1-[[(3R,4R)-4-(3-hydroxy-phenyl)-3,4-dimethyl-1-piperidinyl]methyl]-2-methylpropyl]-3-iso-quinolinecarboxamide]","Ke μ, DAMGO",[5],25 ± 4 nM
same,"Ke δ, DPDPE",[6],74 ± 2 nM

# From paper PMC6692071 (Journal of medicinal chemistry, 2018)
